Only a part of the results on these compounds is given; other tests are left out.
Assays:
[1] = test system: CYP3A4; settings: cited from earlier work
[2] = test system: rCYP3A4; assay: Recombinant enzyme metabolism kinetics, rCYP3A4; settings: Calculated from CLiv using the Retrograde model and fmCYP3A4 = 0.93

SMILES: CCC(=O)N(c1ccccc1)C1(COC)CCN(CCn2nnn(CC)c2=O)CC1
- fm (fmCYP3A4), derived from in vitro data ([1]; verified using a clinical ketoconazole study, ref Labroo et al): 0.93
- fm (fmCYP3A4), clinical data ([1]; wide range from clinical data, inhibitor or trial design not optimal): 0.72-0.93
- rCYP3A4 CLint [2]: 0.49 µL/min/pmol

— paper PMC4885489, “Prediction of Drug-Drug Interactions Arising from CYP3A induction Using a Physiologically Based Dynamic Model” (Drug Metabolism and Disposition, 2016)
